Experimental data reported in patent US9512068B2, “Augmenting moieties for anti-inflammatory compounds” (dated 2016).
Marks after values point to notes of the source that are not given here.

What was measured:
TPA-induced inflammation = experiment: Mouse Ear Vesicant Model (MEVM), TPA-induced inflammation; conditions: test compound 1.5 μmol on ear, 5 h, Irritant = vesicant-induced damage augmented, >100% = below untreated control
[1] = system: CEES-induced inflammation; experiment: Mouse Ear Vesicant Model (MEVM), CEES-induced inflammation; conditions: test compound 1.5 μmol on ear, 5 h, Irritant = vesicant-induced damage augmented, >100% = below untreated control
[2] = system: TPA-induced and CEES-induced injuries; experiment: MEVM inflammation suppression score (average of TPA-induced and CEES-induced injuries); conditions: standard dose

Compound	% suppression of TPA-induced inflammation (TPA-induced inflammation)	% suppression of CEES-induced inflammation [1]	further results
Cc1ccc(C(C)C)cc1OC(=O)NCCCCNCCCNC(=O)Oc1cc(C(C)C)ccc1C	110%	71%	% suppression of TPA-induced inflammation (TPA-induced inflammation; trifluoroacetic acid salt): 100%; % suppression of CEES-induced inflammation ([1]; trifluoroacetic acid salt): 83%
COc1cc(CN)ccc1O	–	–	inflammation suppression score [2]: 35%
COc1cc(CNC(=O)[C@@H](NC(=O)C(C)c2ccc(CC(C)C)cc2)C(C)C)ccc1O (stereo partly drawn)	110%	94%	–
COc1cc(CCC(C)=O)ccc1OC(=O)NCCCCNCCCNC(=O)Oc1ccc(CCC(C)=O)cc1OC	93%	89%	–
COc1ccc2cc(C(C)C(=O)O)ccc2c1 (stereo not drawn)	–	11%	inflammation suppression score [2]: 31%
CC(C)Cc1ccc(C(C)C(=O)N[C@@H](Cc2ccccc2)C(=O)OCCC(C)(C)C)cc1 (stereo partly drawn)	Irritant	Irritant	–
CC(C)Cc1ccc(C(C)C(=O)N[C@H](C(=O)OCCC(C)(C)C)C(C)C)cc1 (stereo partly drawn)	Irritant	47%	–
CC(C)Cc1ccc(C(C)C(=O)N2CCC[C@H]2C(=O)OCCC(C)(C)C)cc1 (stereo partly drawn)	35%	24%	–
CC(C)(C)CCOC(=O)CNC(=O)Cc1ccccc1Nc1c(Cl)cccc1Cl	45** %	Irritant	–
CCOC(=O)[C@@H](NC(=O)[C@@H](C)c1ccc2cc(OC)ccc2c1)C(C)C	–	equipotent	–
CC(C)[C@H](NC(=O)Cc1ccccc1Nc1c(Cl)cccc1Cl)C(=O)OCCC(C)(C)C	31%	85** %	–
COc1cc(CNC(=O)[C@@H](NC(=O)OCc2ccc(OC(C)=O)c(OC)c2)C(C)C)ccc1O	67%	–	–
CC(C)=CCCC(C)=CCCC(C)=CCO	–	–	inflammation suppression score [2]: 69%
CC(C)(C)CCOC(=O)[C@@H]1CCCN1C(=O)Cc1ccccc1Nc1c(Cl)cccc1Cl	76*** %	10%	–
C=C(C)[C@@H]1CC=C(COC(=O)NCc2ccc(O)c(OC)c2)CC1	76%	–	–
Cc1ccc(C(C)C)cc1OC(=O)NCCCNCCCCNCCCNC(=O)Oc1cc(C(C)C)ccc1C	89%	84%	–
CC(C)Cc1ccc(C(C)C(=O)NCC(=O)OCCC(C)(C)C)cc1 (stereo not drawn)	18%	Irritant	–
COc1ccc2cc([C@H](C)C(=O)NCC(=O)OCCC(C)(C)C)ccc2c1	54** %	66** %	–
COc1ccc2c(c1)c(CC(=O)N1CCC[C@H]1C(=O)OCCC(C)(C)C)c(C)n2C(=O)c1ccc(Cl)cc1	68*** %	25%	–
COc1cc(CNC(=O)OC/C=C(\C)CCC=C(C)C)ccc1O	–	64%	–
Cc1ccc(C(C)C)c(OC(=O)NCCCCNCCCNC(=O)Oc2cc(C)ccc2C(C)C)c1	100%	–	–
COc1ccc2cc([C@H](C)C(=O)N[C@@H](Cc3ccccc3)C(=O)OCCC(C)(C)C)ccc2c1	42** %	83%	% suppression of CEES-induced inflammation ([1]; listed as 4572): 83** %
myrtenol	–	–	inflammation suppression score [2]: 6%

Compound	% suppression of TPA-induced inflammation (TPA-induced inflammation)	% suppression of CEES-induced inflammation [1]	further results
COc1ccc2c(c1)c(CC(=O)O)c(C)n2C(=O)c1ccc(Cl)cc1	–	–	inflammation suppression score [2]: 39%
CC(C)(O)c1ccccc1	–	–	inflammation suppression score [2]: 16%
C=CCc1ccc(OC(=O)NCCCCNCCCNC(=O)Oc2ccc(CC=C)cc2OC)c(OC)c1	–	73%	–
COc1ccc2cc([C@H](C)C(=O)N3CCC[C@H]3C(=O)OCCC(C)(C)C)ccc2c1	Irritant	34%	–
CN1C(C(=O)Nc2ccccn2)=C(O)c2ccccc2S1(=O)=O	–	–	inflammation suppression score [2]: 32%
CCOC(=O)[C@@H](NC(=O)OCc1ccc(OC(C)=O)c(OC)c1)C(C)C	93%	72%	–
Cc1ccc(C(C)C)cc1O	10%	19%	–
COc1ccc2c(c1)c(CC(=O)N[C@@H](Cc1ccccc1)C(=O)OCCC(C)(C)C)c(C)n2C(=O)c1ccc(Cl)cc1	79** %	62** %	–
COc1ccc2cc([C@H](C)C(=O)N[C@H](C(=O)O)C(C)C)ccc2c1	–	44%	–
COc1cc(CO)ccc1O	–	–	inflammation suppression score [2]: 31%
CC(C)=CCC/C(C)=C/CO	–	–	inflammation suppression score [2]: 35%
Cc1ccc(C(C)C)c(O)c1	–	–	inflammation suppression score [2]: 14%
COc1cc(CNC(=O)[C@@H](NC(=O)CC(C)O)C(C)C)ccc1O (stereo partly drawn)	–	69%	–
COc1cc(CNC(=O)[C@@H](NC(=O)OC/C=C(\C)CCC=C(C)C)C(C)C)ccc1O	91%	–	–
C=CC(C)(CCC=C(C)C)OC(=O)NCc1ccc(O)c(OC)c1 (stereo not drawn)	–	92%	–
COc1ccc2cc([C@H](C)C(=O)N[C@H](C(=O)OCCC(C)(C)C)C(C)C)ccc2c1	22%	52%	% suppression of CEES-induced inflammation ([1]; listed as 4596): 51%
Cc1ccc(C(C)C)c(OC(=O)NCCCCN(CCCNC(=O)Oc2cc(C)ccc2C(C)C)C(=O)C(F)(F)F)c1	76%	–	–
CC(C)(C)CCOC(=O)[C@H](Cc1ccccc1)NC(=O)Cc1ccccc1Nc1c(Cl)cccc1Cl	90** %	120** %	–
CC1CCC(C(C)C)C(O)C1 (stereo not drawn)	–	–	inflammation suppression score [2]: 38%
C=C(C)[C@@H]1CC=C(CO)CC1	–	–	inflammation suppression score [2]: 43%
COc1ccc2c(c1)c(CC(=O)N[C@H](C(=O)OCCC(C)(C)C)C(C)C)c(C)n2C(=O)c1ccc(Cl)cc1	107*** %	59%	–
COc1ccc2c(c1)c(CC(=O)NCC(=O)OCCC(C)(C)C)c(C)n2C(=O)c1ccc(Cl)cc1	55** %	21%	–
